US11141413B2, “Method of treating renal cell carcinoma using N-(4-(6,7-dimethoxyquinolin-4-yloxy)phenyl)-N′-(4-fluorophenyl)cyclopropane-1,1-dicarboxamide, (2S)-hydroxybutanedioate” (Exelixis, Inc., priority 2016, dated 2021)
Like-named read-outs stand apart in the source and are kept apart here.

Protein sequences, listed by entry. Tags and fused reporters are not part of them. Residues count along the entry.
UniProt Q06418, 41-890: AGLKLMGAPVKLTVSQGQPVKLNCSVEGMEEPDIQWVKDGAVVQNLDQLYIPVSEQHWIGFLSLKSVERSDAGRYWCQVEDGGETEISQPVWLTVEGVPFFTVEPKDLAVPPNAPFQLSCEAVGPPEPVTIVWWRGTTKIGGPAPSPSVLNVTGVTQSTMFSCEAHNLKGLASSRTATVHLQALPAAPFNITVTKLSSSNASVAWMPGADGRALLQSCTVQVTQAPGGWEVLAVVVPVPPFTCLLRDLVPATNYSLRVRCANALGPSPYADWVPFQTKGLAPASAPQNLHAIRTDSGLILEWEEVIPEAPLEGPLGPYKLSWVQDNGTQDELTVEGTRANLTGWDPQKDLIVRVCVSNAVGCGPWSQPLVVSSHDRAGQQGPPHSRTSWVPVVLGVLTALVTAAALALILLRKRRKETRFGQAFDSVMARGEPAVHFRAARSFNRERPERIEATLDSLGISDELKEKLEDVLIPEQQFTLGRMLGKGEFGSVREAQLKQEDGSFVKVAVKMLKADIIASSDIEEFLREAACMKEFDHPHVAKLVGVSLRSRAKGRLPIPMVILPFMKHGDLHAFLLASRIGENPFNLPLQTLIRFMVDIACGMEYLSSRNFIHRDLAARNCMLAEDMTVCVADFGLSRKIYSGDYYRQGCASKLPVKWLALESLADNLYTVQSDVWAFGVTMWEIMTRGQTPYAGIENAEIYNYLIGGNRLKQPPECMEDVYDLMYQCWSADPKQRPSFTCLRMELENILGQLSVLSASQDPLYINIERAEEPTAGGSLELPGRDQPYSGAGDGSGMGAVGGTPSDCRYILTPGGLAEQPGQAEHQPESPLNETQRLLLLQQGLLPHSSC

Experiments:
TYRO3 = TYRO3 (Homo sapiens, UniProt Q06418)
[1] = tested on: pregnant rats and rabbits

## COc1cc2nccc(Oc3ccc(NC(=O)C4(C(=O)Nc5ccc(F)cc5)CC4)cc3)c2cc1OC [cabozantinib]
TYRO3
  Inhibition of tyrosine kinase activity: inhibits
[1]; in vivo
  Embryo-fetal toxicity on administration to pregnant animals during organogenesis: embryolethality at exposures below those occurring clinically at the recommended dose
[1]; rats and rabbits
  Embryo-fetal toxicity on administration to pregnant animals during organogenesis: embryofetal lethality and structural anomalies at exposures that were below those occurring clinically at the recommended dose
